# Assay results from patent US20260382547A1, “AGENT FOR PREVENTING OR AMELIORATING PRURITUS” (published 2026).
# The chains behind the UniProt entries cited, without tags or fusion partners.
# UniProt Q16581, whole entry: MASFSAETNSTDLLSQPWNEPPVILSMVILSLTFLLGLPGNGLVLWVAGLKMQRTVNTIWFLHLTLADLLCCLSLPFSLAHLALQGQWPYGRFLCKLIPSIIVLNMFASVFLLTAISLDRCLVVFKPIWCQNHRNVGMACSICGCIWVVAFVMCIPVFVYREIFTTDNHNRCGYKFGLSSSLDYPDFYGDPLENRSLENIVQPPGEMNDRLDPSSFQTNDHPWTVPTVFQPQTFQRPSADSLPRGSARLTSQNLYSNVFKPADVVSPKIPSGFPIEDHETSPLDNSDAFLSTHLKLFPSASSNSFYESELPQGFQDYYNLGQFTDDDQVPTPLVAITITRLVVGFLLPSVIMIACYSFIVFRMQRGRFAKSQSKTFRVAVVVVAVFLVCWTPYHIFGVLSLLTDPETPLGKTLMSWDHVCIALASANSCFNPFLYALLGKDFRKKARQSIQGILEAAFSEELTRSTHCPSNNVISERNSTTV
# Assays:
# human C3a receptor = human C3a receptor (Homo sapiens, UniProt Q16581); assay: Ca2+-flux assay, C3a receptor antagonism in HEK293 cells expressing human C3a receptor and GNA16; details: final conc.: compound 1 1 μM, tipelukast 10 μM; ligands mouse TLQP-21 1 μM or human C3a 300 nM; FIG. 1
# Text: Mouse TLQP-21 (Tocris Bioscience, sequence: […], the same applies hereinafter) and human C3a recombinant protein (R&D systems) were used. The solvent was HBSS (Gibco).
# The compound 1 (L-arginine, N2-[[5-(diphenylmethyl)-2-thienyl]carbonyl]) synthesized in accordance with a previous report (Rowley, J. A. et al. Journal of Medicinal Chemistry, 2020; 63(2):529-541) and tipelukast (Cayman Chemical) were used as C3a receptor antagonists. In the following evaluation, the compound 1 and tipelukast were dissolved in DMSO and diluted with HBSS as appropriate.
# 3. Cells for Evaluating C3a Receptor Response
# Human Embryonic Kidney cells 293 (HEK293) were used, into which the expression vectors necessary for evaluation were introduced according to the following. […]
# The cells for evaluating C3a receptor response described above were seeded in a BioCoat (Registered Trademark) Poly-D-Lysine 96-well Black Flat Bottom Microplate (CORNING). […] After 15 minutes, C3a receptor ligand solution (mouse TLQP-21 solution or human C3a recombinant protein solution) was added for C3a receptor stimulation, and the Ca^2+ influx associated with the stimulation was measured over time as intracellular fluorescence intensity (Ex: 480 nm, Em: 540 nm). The value obtained by subtracting the measured value when HBSS was added instead of the C3a receptor ligand solution (blank) was used as the measured value. […]
# AD model mice (NC/Nga) [1] = assay: Scratching behavior in AD model mice (mite allergen ointment, Reference Example 4); details: 0.5 mg/mL, 200 μL subcutaneously, three times a week; measured for 3 hours; FIG. 7
# Procedure: Seven-week-old female NC/Nga mice were used.
# Preparation of AD model mice: The back of the neck was shaved, and 100 mg of an ointment containing mite allergen: Biostir AD (Biostir Inc.) was applied to the back of the neck and auricular region under isoflurane anesthesia for initial sensitization. Four days after the first application of the ointment containing mite allergen, 150 μL of 4% (w/v) SDS solution and 100 mg of ointment containing mite allergen were applied to the back of the neck and auricular region under isoflurane anesthesia. Thereafter, the same procedure was performed four times at a frequency of once every 3 to 4 days to induce AD-like dermatitis.
# (§1) 2. Sample Preparation and Method of Administration
# The compound 1, whose C3a receptor antagonism was confirmed in Example 1 above, was used as a C3a receptor antagonist. The compound 1 was dissolved in saline containing 20% polyethylene glycol 400, of which 200 μL was administered subcutaneously to the back of the neck. The control group was administered the same amount of only the above solvent. The concentration of the C3a receptor antagonist solution was set at 0.5 mg/mL. […]
# Four days after the last application of the ointment containing mite allergen, the scratching behavior was measured for 3 hours after the last administration of the sample. […]
# [2] = system: AEW model mice (C57BL/6J); assay: Scratching behavior in AEW model mice (Reference Example 5); details: 0.5 mg/mL, 200 μL subcutaneously, once daily for 8 days; measured for 3 hours; FIG. 8
# Text: The animals used were male C57BL/6J mice.
# Preparation of AEW model: The back of the neck was shaved, and absorbent cotton soaked with a 1:1 (v/v) mixture of acetone and diethyl ether was applied and allowed to stand for 15 seconds. Immediately thereafter, absorbent cotton soaked with water was applied for 30 seconds. This treatment was repeated twice/day (morning and evening) for 7 days.
# as §1
# The compound 1, whose C3a receptor antagonism was confirmed in Example 1 above, was used as a C3a receptor antagonist. The compound 1 was dissolved in saline containing 20% polyethylene glycol 400, of which 200 μL was administered subcutaneously to the back of the neck. The control group was administered the same amount of only the above solvent. The concentration of the C3a receptor antagonist solution was set at 0.5 mg/mL. Sample administration started after the first AEW treatment and was performed at a frequency of once daily for 8 days.
# 3. Measurement of Scratching Behavior
# Sixteen hours after the last AEW treatment, the scratching behavior was measured for 3 hours after the last administration of the sample. MicroAct (Neuroscience) was used to measure the scratching behavior.
# AD model mice (NC/Nga) [3] = assay: Scratching behavior in AD model mice (fur mite-parasitized NC/Nga, Example 2); details: oral, 5 mg/mL suspension at 10 mL/kg; measurement time 22 hours; FIG. 9
# Procedure: NC/Nga mice were parasitized with mouse fur mites (M. musculi) to spontaneously generate dermatitis, and were used as an AD model. Fourteen-week-old males having developed dermatitis were used. After one week of acclimation, the back of their necks was shaved and their scratching behavior was measured. The mice were divided into two groups of eight mice each to ensure an equal number of scratching behaviors.
# (§2) 2. Preparation of Evaluation Sample
# (§3) Tipelukast (Cayman Chemical) was used. Carboxymethyl cellulose (Maruishi Pharmaceutical Co., Ltd.) prepared at 0.5% with water for injection was used as a solvent. The weighed tipelukast was lightly crushed using an agate pestle, and then the solvent dropwise addition and mixing were repeated to obtain a suspension (5 mg/mL). The preparation was done on the day of administration and stored at room temperature until administration.
# 3. […]
# The dosage (10 mL/kg) was calculated by measuring body weight, and the prepared evaluation samples were administered orally with an oral gavage needle for mice and a disposable syringe. […]
# (§4) MicroAct (Neuroscience) was used to measure the scratching behavior. […] Measurements were made on the day before (before administration) and on the day of administration (after administration) of tipelukast, and the antipruritic effect of tipelukast was evaluated by comparing the number of scratching behaviors before and after administration.
# [4] = system: ANIT model mice (C57BL/6J); assay: Scratching behavior in ANIT model mice, pruritus associated with cholestasis (Example 3); details: oral, 5 mg/mL suspension at 10 mL/kg; measurement time 22 hours; FIG. 10
# Procedure: Shaved male C57BL/6J mice were used. To eight-week-old C57BL/6J mice, α-naphthyl isothiocyanate (ANIT) dissolved in olive oil (FUJIFILM Wako Pure Chemical) was orally administered once daily for 10 days with an oral gavage needle for mice and a disposable syringe. Before administration, body weight was measured to ensure administration at 25 mg/10 mL/kg (ANIT model).
# as §2, §3
# 3. Administration of Evaluation Sample
# The dosage (10 mL/kg) was calculated by measuring body weight, and the prepared evaluation samples were administered orally with an oral gavage needle for mice and a disposable syringe.
# 4. […]
# as §4
# leukotriene receptor = details: cited from earlier work
# [5] = system: phosphodiesterases (PDEs, mainly −3 and −4); details: mainly PDE-3 and -4; cited from earlier work
# 5-lipoxygenase = details: cited from earlier work
# blood triglycerides = details: cited from earlier work
# [6] = system: 5-lipoxygenase (5-LO) pathway; details: by inhibiting leukotriene biosynthesis via the 5-LO pathway; cited from earlier work
# Mice = details: oral, consecutive days; eLife, 2019 8: e44116; cited from earlier work
Structure (SMILES),"fluorescence intensity due to C3a receptor stimulation by C3a receptor ligands (Ca2+ influx), vs control (human C3a receptor)",scratching behavior compared to solvent alone (AD model mice (NC/Nga) [1]),scratching behavior compared to solvent alone [2],"scratching behavior (events), after vs before administration (AD model mice (NC/Nga) [3])","scratching behavior (events), after vs before administration [4]",effect on the leukotriene receptor (leukotriene receptor),effect on phosphodiesterases [5],effect on 5-lipoxygenase (5-lipoxygenase),effect on blood triglycerides (blood triglycerides),effect on inflammation and fibrosis [6],cholestasis-like symptoms and scratching behavior (Mice)
N=C(N)NCCC[C@H](NC(=O)c1ccc(C(c2ccccc2)c2ccccc2)s1)C(=O)O,suppressed,significant decrease in scratching behavior,significant decrease in scratching behavior,,,,,,,,
CCCc1c(SCCCOc2ccc(C(C)=O)c(OCCCC(=O)O)c2CCC)ccc(C(C)=O)c1O,suppressed,,,significant decrease in scratching behavior,significant decrease in scratching behavior,antagonistic effect,inhibitory effect,inhibitory effect,reducing blood triglycerides,reducing inflammation and preventing fibrosis,
S=C=Nc1cccc2ccccc12,,,,,,,,,,,cholestasis-like symptoms and increased scratching behavior
